Laboratory results taken from US8008333B2, “Single dose aromatase inhibitor for treating infertility” (Ares Trading S.A., priority 2001, dated 2011).
Read-outs that look alike come from different tables or passages of the source.

Tested on: infertile patients (PCOS, unexplained infertility)

## N#Cc1ccc(C(c2ccc(C#N)cc2)n2cncn2)cc1 [letrozole]
Letrozole 5 days cycle
  Day of hCG administration: 13.2 (2.5)
Letrozole single-dose cycles
  Day of hCG administration: 12.9 (2.9)
